Data on two compounds can be found in paper PMC9369162, “Substrates of the Human Brain Proton-Organic Cation Antiporter and Comparison with Organic Cation Transporter 1 Activities” (International Journal of Molecular Sciences, 2022).

The assay concerns the target T1, OCT1 (Homo sapiens, UniProt O15245).
T1 construct: expressed in transfected cells; host or cells: HEK293
T1 sequence (O15245 1-554): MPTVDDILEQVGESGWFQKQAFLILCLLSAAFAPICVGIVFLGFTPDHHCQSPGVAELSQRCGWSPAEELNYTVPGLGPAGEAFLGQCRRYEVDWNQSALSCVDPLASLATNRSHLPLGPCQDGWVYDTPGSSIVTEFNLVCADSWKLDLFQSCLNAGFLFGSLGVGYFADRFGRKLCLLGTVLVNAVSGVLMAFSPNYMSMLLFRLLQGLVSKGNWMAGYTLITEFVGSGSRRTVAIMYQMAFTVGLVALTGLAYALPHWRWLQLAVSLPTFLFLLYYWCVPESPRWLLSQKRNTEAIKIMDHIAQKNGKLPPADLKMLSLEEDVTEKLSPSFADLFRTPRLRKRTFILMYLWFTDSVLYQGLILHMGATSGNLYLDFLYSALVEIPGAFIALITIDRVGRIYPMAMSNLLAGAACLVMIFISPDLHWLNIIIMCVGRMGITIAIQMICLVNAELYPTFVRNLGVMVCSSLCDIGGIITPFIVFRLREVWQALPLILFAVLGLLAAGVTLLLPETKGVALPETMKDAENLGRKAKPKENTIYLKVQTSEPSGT
The experiment in a line: Cell uptake in OCT1 overexpressing HEK293 cells over empty-vector transfected cells. Format: cell-based.

On to `CNCCC(Oc1ccc(C(F)(F)F)cc1)c1ccccc1` (centres unmarked) [Fluoxetine], for which the “OCT1 Ratio” value worked out at 1.10. For `CC(CCc1ccccc1)NCC(O)c1ccc(O)c(C(N)=O)c1` (centres unmarked) [Labetalol] the value was 1.00.
